Test [1] concerns the target T1, Human thrombin (Homo sapiens, UniProt P00734). Briefly: biochemical. The settings on record: read-out: % Inhibition Thrombin II at 100 μM.
The target in test [2] is T1, Human thrombin.

Consider `N=C(N)c1ccc(S(=O)(=O)NCCn2c(-c3cccc(N)c3)c(Cl)nc(NC3CCC3)c2=O)cc1` [Example 137], for which the inhibition at 100 µM at Human thrombin [1] came to 4%.
For `NC1=NCCSc2cc(CNC(=O)Cn3c(-c4cccc(N)c4)c(Cl)nc(NC4CCC4)c3=O)ccc21` [Example 154], the “% Inhibition Thrombin II (30 µM)” value at Human thrombin [2] is listed as 2%.

These data come from patent US6908919B2, “Substituted polycyclic aryl and heteroaryl pyrazinones useful for selective inhibition of the coagulation cascade” (Pharmacia Corporation, priority 1999, dated 2005).
